Reference: patent publication US20030026781A1, “Compositions and methods for regulating endogenous inhibitor of ATP synthase, including treatment for diabetes” (MitoKor, priority 1999, published 2003)

Sequences of proteins named here, by UniProt entry; tags and fusion partners are left off. A change or cut given only in a name is not applied to a line headed by its entry.
UniProt P10719: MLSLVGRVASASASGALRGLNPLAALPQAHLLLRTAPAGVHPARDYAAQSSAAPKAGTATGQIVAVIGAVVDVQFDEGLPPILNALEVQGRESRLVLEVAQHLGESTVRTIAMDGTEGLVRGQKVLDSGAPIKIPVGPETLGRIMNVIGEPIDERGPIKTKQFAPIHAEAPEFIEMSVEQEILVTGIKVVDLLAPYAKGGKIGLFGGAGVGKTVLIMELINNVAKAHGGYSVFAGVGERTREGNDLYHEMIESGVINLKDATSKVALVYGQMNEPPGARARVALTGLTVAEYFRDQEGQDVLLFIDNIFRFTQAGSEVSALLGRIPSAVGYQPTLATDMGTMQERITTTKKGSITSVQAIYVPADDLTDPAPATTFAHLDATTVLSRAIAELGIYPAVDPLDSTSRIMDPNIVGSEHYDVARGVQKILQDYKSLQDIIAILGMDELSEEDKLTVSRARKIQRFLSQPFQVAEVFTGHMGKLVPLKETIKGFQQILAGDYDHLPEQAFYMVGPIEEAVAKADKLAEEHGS
UniProt P15999: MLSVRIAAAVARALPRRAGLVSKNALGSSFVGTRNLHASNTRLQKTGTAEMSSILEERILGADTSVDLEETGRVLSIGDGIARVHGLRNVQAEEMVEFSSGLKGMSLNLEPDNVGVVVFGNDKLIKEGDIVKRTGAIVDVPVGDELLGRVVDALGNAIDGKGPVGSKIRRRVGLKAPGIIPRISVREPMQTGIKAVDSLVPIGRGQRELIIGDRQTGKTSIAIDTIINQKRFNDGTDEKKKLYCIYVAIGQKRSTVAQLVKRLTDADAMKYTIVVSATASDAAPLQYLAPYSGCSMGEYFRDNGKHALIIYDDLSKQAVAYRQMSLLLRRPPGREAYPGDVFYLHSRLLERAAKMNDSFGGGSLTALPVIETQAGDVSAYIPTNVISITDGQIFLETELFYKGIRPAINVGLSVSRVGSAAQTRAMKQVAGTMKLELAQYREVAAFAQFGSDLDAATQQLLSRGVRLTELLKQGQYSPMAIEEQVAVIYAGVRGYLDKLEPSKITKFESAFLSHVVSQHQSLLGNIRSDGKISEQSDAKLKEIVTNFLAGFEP

Target: T1, mitochondrial ATP synthase (ETC Complex V) in rat liver submitochondrial particles (Rattus norvegicus, UniProt P10719+P15999)
T1 construct: rat liver submitochondrial particles (SMP) prepared from male Sprague-Dawley rat livers; from tissue; host or cells: male Sprague-Dawley rat liver, submitochondrial particles (method of Walker et al. 1995)
Experiment: Oligomycin-sensitive ATPase (ATP hydrolase) activity in rat liver submitochondrial particles (SMP)
Format: biochemical
Settings: preincubation pH 6.7, values omitted from FIG. 12, read-out: IC50 for inhibition of SMP ATPase (dose-response)
Description: The IF1(42-58) polypeptide was also tested for its ability to inhibit the F0-F1-ATPase in rat ASMPs (alkaline submitochondrial particles) prepared as in the preceding Example. […] ATP hydrolase activity was expressed as the percent of detectable activity in the absence of added IF1-containing fusion protein, and the level of oligomycin-inhibitable activity was also determined (FIG. 8).
The effects of the IF1 peptides on ATPase activity were determined by assaying ATPase in rat liver submitochondrial particles (SMP) prepared from male Sprague-Dawley rat livers according to the method of Walker et al. (1995 Meth. Enzymol. 260:163-190). […] Louis, Mo., unless otherwise noted) for 10 min at room temperature. The mixtures were then added to assay buffer (50 mM Tris-HCl, 3.3 mM MgCl2, pH 8.0) in a 96-well plate and ATPase activity was initiated by the addition of 1 mM ATP, 1 mM phophoenolypyruvate, 3 U/ml pyruvate kinase, 10 U/ml lactate dehydrogenase and 0.3 mM NADH. Reactions were monitored by recording absorbance in “kinetic read” mode at 340 nm for 10 min at 30° C. in a termperature-controlled Spectromax Plus-384™ 96-well plate reader (Molecular Devices, Inc., Sunnyvale, Calif.) according to the manufacturer's instructions. In this mode, the plate reader recorded an absorbance value for each well at approximately nine-second intervals. […]

IC50 [µM]	Structure (SMILES)
> 2.6	CC[C@H](C)[C@H](NC(=O)[C@@H](N)CO)C(=O)N[C@@H](CCCNC(=N)N)C(=O)N[C@@H](CCC(=O)O)C(=O)N[C@@H](C)C(=O)NCC(=O)NCC(=O)N[C@@H](C)C(=O)N[C@@H](Cc1ccccc1)C(=O)NCC(=O)N[C@@H](CCCCN)C(=O)N[C@@H](CCCNC(=N)N)C(=O)N[C@@H](CCC(=O)O)C(=O)N[C@@H](CCCCN)C(=O)N[C@@H](C)C(=O)N[C@@H](CCC(=O)O)C(=O)N[C@@H](CCC(=O)O)C(=O)N[C@@H](CC(=O)O)C(=O)N[C@@H](CCCNC(=N)N)C(=O)N[C@@H](Cc1ccc(O)cc1)C(=O)N[C@@H](Cc1ccccc1)C(=O)N[C@@H](CCCNC(=N)N)C(=O)N[C@@H](CCC(=O)O)C(=O)N[C@@H](CCCCN)C(=O)N[C@H](C(=O)N[C@@H](CCCNC(=N)N)C(=O)N[C@@H](CCC(=O)O)C(=O)N[C@@H](CCC(N)=O)C(=O)N[C@@H](CC(C)C)C(=O)O)[C@@H](C)O [14-42]
> 1.5	CC[C@H](C)[C@H](NC(=O)[C@@H](N)CO)C(=O)N[C@@H](CCCNC(=N)N)C(=O)N[C@@H](CCC(=O)O)C(=O)N[C@@H](C)C(=O)NCC(=O)NCC(=O)N[C@@H](C)C(=O)N[C@@H](Cc1ccccc1)C(=O)NCC(=O)N[C@@H](CCCCN)C(=O)N[C@@H](CCCNC(=N)N)C(=O)N[C@@H](CCC(=O)O)C(=O)N[C@@H](CCCCN)C(=O)N[C@@H](C)C(=O)N[C@@H](CCC(=O)O)C(=O)N[C@@H](CCC(=O)O)C(=O)N[C@@H](CC(=O)O)C(=O)N[C@@H](CCCNC(=N)N)C(=O)N[C@@H](Cc1ccc(O)cc1)C(=O)N[C@@H](Cc1ccccc1)C(=O)N[C@@H](CCCNC(=N)N)C(=O)N[C@@H](CCC(=O)O)C(=O)N[C@@H](CCCCN)C(=O)N[C@H](C(=O)N[C@@H](CCCNC(=N)N)C(=O)N[C@@H](CCC(=O)O)C(=O)N[C@@H](CCC(N)=O)C(=O)N[C@@H](CC(C)C)C(=O)N[C@@H](C)C(=O)O)[C@@H](C)O [14-43]
